From patent US5998437A, “Benzimidazole derivatives” (Otsuka Pharmaceutical Co., Ltd., priority 1995, dated 1999)
Read-outs that look alike come from different tables or passages of the source.

Tests used:
[1] = tested on: human fibroblast; assay: Activity for inhibiting proliferation of the human fibroblast ([3H]-thymidine uptake); conditions: read-out: Activity for inhibiting proliferation of the human fibroblast, IC50, tested form: HCl
Experimental: (§1) Test was conducted by the modified method of N. Morisaki [Atherosclerosis, Vol. 71, (1988), pp. 165-171]. The rat A10 cells (purchased from Dainippon Pharmaceutical Co., Ltd.) were inoculated on a 24 wells immunoplate at a density of 10,000 cells/well, and were cultured in 10% FBS (fetal bovine serum) for 2 days, and in order to introduce the cells into the resting stage, the cells were further cultured in a serum-free medium for 2 days. After that, 1% FBS was added thereto for stimulating the proliferation, of the cells and at the same time, a test compound and 0.5 μCi/well of [^3 H]-thymidine were added. As to the index of synthesized amount of DNA, the quantity of [^3 H]-thymidine being uptaken by the cells was measured at the time of 24 hours after the final cultivation was started.
(3) Measurement of the Activity for Inhibiting Proliferation of the Human Fibroblast
Similar to the activity for inhibiting proliferation of rat A10 cells as mentioned above, the activity for inhibiting proliferation of the human fibroblast (purchased from Dainippon Pharmaceutical Co., Ltd.) was determined by measuring the uptake amount of [^3 H]-thymidine. Compounds of Examples 3, 16, 31, 33, 45 and 47 were used for the test, and the measured values of IC50 were, 0.04 μM, 0.049 μM, 0.18 μM, 0.042 μM, 0.041 μM and 0.021 μM, respectively.

[2] = target: cGMP-PDE (Homo sapiens, UniProt O76074); assay: Activity for inhibiting cGMP PDE (PDE partially purified from human platelets, FI fraction); assay type: biochemical; conditions: read-out: Activity for inhibiting cGMP-PDE [IC50 (μM)], 0.4 μM of [3H]-cGMP
Experimental: (1) Measurement of the Activity for Inhibiting cGMP PDE
Separation and partial purification of PDE (phosphodiesterase) from human platelets, and measurement of the activity for inhibiting cGMP PDE were conducted by the method of Hidaka, et al. [Biochimica et Biophysica Acta, Vol. 429, (1976), pp. 485-497]. The platelets obtained from human healthy adult were washed, and suspended in TRIS-buffer solution, then said suspension was treated by centrifugal separation, the supernatant was subjected to a DEAE-cellulose treatment and fractionated into FI to FIII fractions by a method of concentration gradient of sodium acetate. Thus obtained FI fraction was used as the sample of cGMP-PDE. The activity for inhibiting cGMP-PDE was measured by using 0.4 μM of [^3 H]-cGMP.

[3] = tested on: rat A10 cells; assay: Activity for inhibiting proliferation of rat A10 cells ([3H]-thymidine uptake); assay type: cell-based; conditions: read-out: Activity for inhibiting proliferation of rat A10 cells [IC50 (μM)]; 1% FBS stimulation, 24 hours
Experimental: (2) Measurement of the Activity for Inhibiting Proliferation of Rat A10 Cells
as §1

| Structure (SMILES) | IC50 [1] | IC50 ([2]; tested form: HCl) | IC50 [2] | IC50 [3] |
| --- | --- | --- | --- | --- |
| O=C(Nc1cn(CCCn2ccnc2)c2ccccc12)c1nc2ccc(Cl)cc2n1Cc1ccccc1 | 180 nM | 0.03 µM | – | – |
| O=C(Nc1c[nH]c2ccccc12)c1nc2ccc(Cl)cc2n1Cc1ccccc1 | – | – | 0.06 µM | 0.24 µM |
